The assay is filed under the species Homo sapiens. As to the kind of experiment: Selectivity ratio of IC50 for N-terminal His6-tagged recombiant human full length p120gamma IC50 for N-terminal His6-tagged recombinant full length human p110delta/untagged recombinant full length human p85alpha.

On to `Cc1nc(Nc2cccc(N3CCCC3=O)n2)sc1-c1cc2c(c(S(C)(=O)=O)c1)C(=O)N([C@@H](C)C1CC1)C2`, for which the Ratio IC50 was 1.3.

For the origin of these results see ChEMBL document CHEMBL4350952, “Evolution of PI3Kγ and δ Inhibitors for Inflammatory and Autoimmune Diseases” (J Med Chem, 2019).
